# scFv variants of Ab-95 (light chain) against a SARS-CoV-2 spike peptide

Target peptide (SARS-CoV-2 spike, HR2 region): PDVDLGDISGINAS

Parent scFv Ab-95: VH joined to VL by a (GGGGS)3 linker. Changes lie in the light chain CDRs alone.
VH: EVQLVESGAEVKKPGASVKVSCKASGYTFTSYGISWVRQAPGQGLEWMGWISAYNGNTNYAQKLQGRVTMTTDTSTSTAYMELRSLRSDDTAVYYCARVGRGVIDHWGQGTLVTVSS
VL: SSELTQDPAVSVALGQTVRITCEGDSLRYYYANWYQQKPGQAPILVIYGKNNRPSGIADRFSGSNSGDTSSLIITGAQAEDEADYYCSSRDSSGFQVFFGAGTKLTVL

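The starting antibody came from a phage panning campaign against this peptide. Library AAYL52 holds single substitutions and randomly drawn double and triple substitutions in the CDRs. The assay is AlphaSeq: two haploid yeast populations carry antibody and antigen on their surface. Pairs that bind mate more often; barcode pairs of the diploids are counted by sequencing. A regression on co-assayed BCL2-family reference pairs converts the normalised counts of each replicate to an apparent Kd. There are three technical replicates.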

Each variant's VL is given in full. This list gathers variants with a substitution at N51 (VL, numbered from residue 1). Numbers give log10(Kd / nM), so 0 is 1 nM and 3 is 1 µM. Smaller is tighter. A mean of the replicates is given; it leaves out those without a signal. "ND" marks a missing value. The strain was present, yet no cells mated with the target were sequenced in that replicate, which points to weak or no binding. Nonspecific signal, from three strains lacking the peptide, appeared in 28% of pairings of library AAYL52, centred on 3.91 (5% of these signals below 2.90); values are not corrected for it. Also given: how often the same scFv was detected with the empty control strains. For reference, the parent read 2.31 as the reference entry and 2.25 as a member of this library.

Variant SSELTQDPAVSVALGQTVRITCEGDSLRYYYNNWYQQKPGQAPILVIYGKGNRPIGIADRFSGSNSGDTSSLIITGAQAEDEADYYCSSRDSSGFQVFFGAGTKLTVL showed 3.56, 3.32, 2.33 (mean 3.07; controls 1 of 9). Variant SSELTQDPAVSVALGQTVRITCEGDSLIYYYANWYQQKPGQAPILVIYGKSNRPSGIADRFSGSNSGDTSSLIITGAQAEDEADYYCSSRDSSGFQVFFGAGTKLTVL gave 2.93, 3.28, 2.60 (mean 2.93; controls 1 of 9). Variant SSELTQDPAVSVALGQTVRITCEGDSLRYMYANWYQQKPGQAPILVIYGKQNRPSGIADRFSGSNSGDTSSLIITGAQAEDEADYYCSSRDSFGFQVFFGAGTKLTVL gave ND, 3.34, ND (controls 6 of 9). With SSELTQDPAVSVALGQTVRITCEGDSLRYYYANWYQQKPGQAPILVIYGKKNRPSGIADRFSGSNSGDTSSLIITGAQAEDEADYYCSSRDSSGFMVPFGAGTKLTVL the result was ND, ND, 2.19 (controls 0 of 9). With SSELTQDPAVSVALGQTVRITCAGDSLRYYYANWYQQKPGQAPILVIYGKANQPSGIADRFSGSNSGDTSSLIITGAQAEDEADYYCSSRDSSGFQVFFGAGTKLTVL the result was 3.64, 3.97, 3.55 (mean 3.72; controls 3 of 9). For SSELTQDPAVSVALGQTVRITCEGDSLRYYPANWYQQKPGQAPILVIYGKHNRPSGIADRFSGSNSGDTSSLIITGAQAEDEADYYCSSRDSSGFQVFFGAGTKLTVL, the assay gave 1.73, 1.70, 1.33 (mean 1.59; controls 1 of 9).

Variant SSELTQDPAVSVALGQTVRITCEKDSLRYYYANWYQQKPGQAPILVIYGKAHRPSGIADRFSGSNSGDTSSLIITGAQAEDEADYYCSSRDSSGFQVFFGAGTKLTVL gave 2.44, 2.34, 2.49 (mean 2.42; controls 5 of 9). With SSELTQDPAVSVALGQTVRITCEGDSLRYYYANWYQQKPGQAPILVIYGKMLRPSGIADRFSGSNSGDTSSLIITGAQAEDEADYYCSSRDSSGIQVFFGAGTKLTVL the result was 3.06, ND, 4.11 (mean 3.59; controls 3 of 9). Variant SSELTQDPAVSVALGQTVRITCEGDSLRYYYANWYQQKPGQAPILVIYGKPNRPQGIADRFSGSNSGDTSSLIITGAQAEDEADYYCSSRDSSGFQVFFGAGTKLTVL gave ND, ND, 3.84 (controls 4 of 9). With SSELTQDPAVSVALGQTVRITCEGASLRYYYANWYQQKPGQAPILVIYGKLNRPSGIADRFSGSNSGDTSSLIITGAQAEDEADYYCSGRDSSGFQVFFGAGTKLTVL the result was 3.53, ND, ND (controls 4 of 9). With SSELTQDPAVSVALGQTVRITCEGDSLPYYYANWYQQKPGQAPILVIYGKYNVPSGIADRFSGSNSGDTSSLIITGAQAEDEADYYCSSRDSSGFQVFFGAGTKLTVL the result was 3.32, 5.47, ND (mean 4.39; controls 4 of 9). Variant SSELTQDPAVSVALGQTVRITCEGDSLRYYYANWYQQKPGQAPILVIYGKCNRSSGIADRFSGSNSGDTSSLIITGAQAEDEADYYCSSRDSSGCQVFFGAGTKLTVL gave 3.93, 3.96, 4.01 (mean 3.96; controls 5 of 9).

Variant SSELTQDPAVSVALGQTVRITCEGDSLRAYYANWYQQKPGQAPILVIYGKFNRPSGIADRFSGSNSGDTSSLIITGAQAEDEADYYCSSRDSSGFQVFFGAGTKLTVL gave 3.77, 4.03, 3.40 (mean 3.73; controls 2 of 9). For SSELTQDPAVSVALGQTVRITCEGDSLRYYYANWYQQKPGQAPILVIYGGGPRPSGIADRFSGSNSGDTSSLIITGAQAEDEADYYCSSRDSSGFQVFFGAGTKLTVL, the assay gave 2.75, 2.60, 3.30 (mean 2.89; controls 5 of 9). Variant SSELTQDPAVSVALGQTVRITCEGDSLRYPYANWYQQKPGQAPILVIYGKPNRPSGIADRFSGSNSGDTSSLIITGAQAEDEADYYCSSRDSSGFNVFFGAGTKLTVL showed 4.82, 3.91, ND (mean 4.37; controls 2 of 9). Variant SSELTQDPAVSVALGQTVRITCEGDLLRYYNANWYQQKPGQAPILVIYGKYNRPSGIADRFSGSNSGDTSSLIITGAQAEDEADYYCSSRDSSGFQVFFGAGTKLTVL gave 4.41, 2.87, ND (mean 3.64; controls 5 of 9). With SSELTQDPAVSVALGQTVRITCVGDSLRYYYANWYQQKPGQAPILVIYGKSNRPSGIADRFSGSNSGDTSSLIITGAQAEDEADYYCSSRASSGFQVFFGAGTKLTVL the result was 4.72, 3.07, 3.48 (mean 3.76; controls 4 of 9). Variant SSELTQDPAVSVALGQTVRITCEGDSLRYYYANWYQQKPGQAPILVIYGKWNRPSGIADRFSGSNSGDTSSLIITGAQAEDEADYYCSSRDSSGFQVFFGAGTKLTVL gave ND, ND, ND (controls 1 of 9).

With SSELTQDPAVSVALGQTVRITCEGDSLRYYYANWYQQKPGQAPILVIYGKLNRPSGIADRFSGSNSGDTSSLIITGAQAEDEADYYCSSFDSLGFQVFFGAGTKLTVL the result was 4.18, 4.28, ND (mean 4.23; controls 3 of 9).

For reference, 2 entries of the list once more:

VL	replicates, log10 nM	log10 Kd (nM), mean	signal with controls
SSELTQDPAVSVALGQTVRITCEGDSLRYYYANWYQQKPGQAPILVIYGKWNRPSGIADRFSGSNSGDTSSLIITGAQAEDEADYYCSSRDSSGFQVFFGAGTKLTVL	ND, ND, ND	ND	1 of 9
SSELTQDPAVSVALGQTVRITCEGDSLRYYYANWYQQKPGQAPILVIYGKPNRPQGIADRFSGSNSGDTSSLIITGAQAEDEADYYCSSRDSSGFQVFFGAGTKLTVL	ND, ND, 3.84	3.84	4 of 9

Values reported by Engelhart et al. 2022, doi:10.1038/s41597-022-01779-4 (FLAb copy).